Patent US8716295B2, “Fluoroquinolone derivatives or sulfonamide moiety-containing compounds as inhibitors of tyrosyl-dnaphosphodiesterase (TDP1)” (priority 2010, dated 2014)

Amino acid sequences for entries named in this document (tags omitted).
UniProt Q9NUW8, whole entry: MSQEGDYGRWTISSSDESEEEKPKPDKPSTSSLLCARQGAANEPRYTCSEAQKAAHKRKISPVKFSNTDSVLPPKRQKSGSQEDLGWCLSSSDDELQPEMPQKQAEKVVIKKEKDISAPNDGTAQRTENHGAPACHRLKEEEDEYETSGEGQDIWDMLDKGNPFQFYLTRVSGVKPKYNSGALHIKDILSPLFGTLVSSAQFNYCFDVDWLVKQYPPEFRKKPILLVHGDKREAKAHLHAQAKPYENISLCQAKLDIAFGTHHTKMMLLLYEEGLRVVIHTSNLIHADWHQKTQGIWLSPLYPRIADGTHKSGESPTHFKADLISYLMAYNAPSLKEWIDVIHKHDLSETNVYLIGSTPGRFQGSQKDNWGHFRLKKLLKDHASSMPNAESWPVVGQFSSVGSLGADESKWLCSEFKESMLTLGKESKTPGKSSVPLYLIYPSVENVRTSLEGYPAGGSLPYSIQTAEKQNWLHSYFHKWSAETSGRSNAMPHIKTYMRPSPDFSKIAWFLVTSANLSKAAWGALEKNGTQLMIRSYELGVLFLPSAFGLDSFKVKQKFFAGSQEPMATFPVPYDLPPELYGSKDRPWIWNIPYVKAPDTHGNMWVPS

Molecular target: recombinant Tdp1 (Homo sapiens, UniProt Q9NUW8)
Test: Gel-based Tdp1 catalytic activity inhibition assay (5'-32P-labeled N14Y DNA substrate, denaturing PAGE)
Assay type: biochemical

Structure (SMILES): COc1c(N2CCN(CNc3ccc(S(=O)(=O)Nc4nc(C)cc(C)n4)cc3)C(C)C2)c(F)cc2c(=O)c(C(=O)O)cn(C3CC3)c12 (stereo not shown)
- Tdp1 inhibitory activity (in words): nanomolar range
